# Results from article doi:10.1101/2021.04.08.439011v1 (biorxiv, 2021).
# Chains of the proteins cited; added tags and fusions are not shown. Residues count along the entry.
# UniProt Q9P289, 1-300: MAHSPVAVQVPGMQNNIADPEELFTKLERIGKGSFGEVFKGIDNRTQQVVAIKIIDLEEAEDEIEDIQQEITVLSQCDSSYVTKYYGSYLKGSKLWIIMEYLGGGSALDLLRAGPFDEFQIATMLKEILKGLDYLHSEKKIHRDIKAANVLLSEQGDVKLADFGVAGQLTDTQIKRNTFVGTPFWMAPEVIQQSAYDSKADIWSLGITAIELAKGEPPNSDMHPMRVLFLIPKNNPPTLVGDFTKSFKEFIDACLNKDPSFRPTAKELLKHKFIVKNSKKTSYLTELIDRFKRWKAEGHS
# UniProt Q9Y6E0, 4-301: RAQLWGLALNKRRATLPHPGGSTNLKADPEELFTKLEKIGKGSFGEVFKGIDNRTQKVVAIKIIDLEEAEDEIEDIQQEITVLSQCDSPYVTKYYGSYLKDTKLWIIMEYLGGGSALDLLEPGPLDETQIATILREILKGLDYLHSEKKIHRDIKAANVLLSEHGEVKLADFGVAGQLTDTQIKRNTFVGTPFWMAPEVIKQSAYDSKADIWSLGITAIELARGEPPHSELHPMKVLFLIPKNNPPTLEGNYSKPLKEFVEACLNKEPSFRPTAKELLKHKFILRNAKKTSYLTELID
# Assays:
# MST4 = MST4 (Homo sapiens, UniProt Q9P289); conditions: binder
# MST3 = MST3 (Homo sapiens, UniProt Q9Y6E0); conditions: binder
smiles,measurement,setting,value
CN[C@@H]1C[C@H]2O[C@@](C)([C@@H]1OC)n1c3ccccc3c3c4c(c5c6ccccc6n2c5c31)C(=O)NC4 [Staurosporine],ΔTm [°C] MST4,MST4,7.1 ± 0.5 °C
same,ΔTm [°C] MST3,MST3,8.8 ± 0.2 °C
